# According to patent US20200270233A1, “DHFR INHIBITORS, COMPOSITIONS, AND METHODS RELATED THERETO” (Vyera Pharmaceuticais LLC, priority 2017, published 2020):
# The chains behind the UniProt entries cited, without tags or fusion partners. Where a name states a change or a piece, a line headed by the entry shows the natural chain unless it says otherwise.
# UniProt P07382: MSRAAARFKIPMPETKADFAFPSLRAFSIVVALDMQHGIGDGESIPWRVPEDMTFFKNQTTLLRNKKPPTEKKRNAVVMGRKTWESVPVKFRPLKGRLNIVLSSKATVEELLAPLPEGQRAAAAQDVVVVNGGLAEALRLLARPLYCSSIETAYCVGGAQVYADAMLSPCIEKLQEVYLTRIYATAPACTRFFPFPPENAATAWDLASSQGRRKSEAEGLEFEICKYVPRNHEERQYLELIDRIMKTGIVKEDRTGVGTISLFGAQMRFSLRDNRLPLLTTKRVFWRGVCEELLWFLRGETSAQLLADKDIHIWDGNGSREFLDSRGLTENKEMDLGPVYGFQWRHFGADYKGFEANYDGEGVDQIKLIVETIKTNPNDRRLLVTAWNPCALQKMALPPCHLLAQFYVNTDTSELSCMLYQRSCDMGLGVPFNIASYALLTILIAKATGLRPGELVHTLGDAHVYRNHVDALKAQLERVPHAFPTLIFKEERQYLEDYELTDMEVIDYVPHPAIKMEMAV
# Molecular target: L. major DHFR (lmDHFR) (Leishmania major, UniProt P07382)
# Assay: biochemical
compound,measurement,value
"CCc1nc(N)nc(N)c1-c1ccc(Cl)cc1 [pyrimethamine, reference compound]",IC50,5.62 µM
